Test results from patent US20090209474A1, “NOVEL USES FOR DRUGS TARGETING GLUTAMINE SYNTHETASE” (NEWTHERA, priority 2005, published 2009).

Sequences of proteins named here, by UniProt entry; tags and fusion partners are left off. Residues count along the entry.
UniProt P15105, 2-373 limits assumed: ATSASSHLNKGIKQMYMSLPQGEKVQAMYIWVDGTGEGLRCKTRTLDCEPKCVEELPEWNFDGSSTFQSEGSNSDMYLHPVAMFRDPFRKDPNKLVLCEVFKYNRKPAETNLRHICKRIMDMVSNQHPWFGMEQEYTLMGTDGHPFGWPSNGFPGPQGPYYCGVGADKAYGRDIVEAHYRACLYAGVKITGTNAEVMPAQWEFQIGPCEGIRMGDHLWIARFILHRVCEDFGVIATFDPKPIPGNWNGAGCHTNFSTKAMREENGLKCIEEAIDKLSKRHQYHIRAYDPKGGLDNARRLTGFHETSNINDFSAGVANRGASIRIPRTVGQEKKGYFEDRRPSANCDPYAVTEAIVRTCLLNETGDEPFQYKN
UniProt P09606, 2-373 limits assumed: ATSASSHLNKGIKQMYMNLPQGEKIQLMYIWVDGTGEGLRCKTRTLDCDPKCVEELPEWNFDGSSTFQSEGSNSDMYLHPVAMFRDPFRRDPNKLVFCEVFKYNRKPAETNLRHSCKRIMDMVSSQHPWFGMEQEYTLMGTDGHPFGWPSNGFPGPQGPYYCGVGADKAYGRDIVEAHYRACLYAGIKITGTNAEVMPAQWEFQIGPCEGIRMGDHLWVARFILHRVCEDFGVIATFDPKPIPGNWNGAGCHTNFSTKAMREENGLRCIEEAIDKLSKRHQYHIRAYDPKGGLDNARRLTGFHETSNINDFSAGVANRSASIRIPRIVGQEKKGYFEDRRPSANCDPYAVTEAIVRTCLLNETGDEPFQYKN

Assays:
[1] = over 48 hours; cited from earlier work
GS [2] = target: GS (Mus musculus, UniProt P15105); details: 24 h after single i.p.
Wistar rats = assay: PTZ-induced seizures; assay type: in vivo; details: GF 0.5, 5, 25 mg/kg, tianeptine 1, 10, 50 mg/kg i.p. 1 h before PTZ 50 mg/kg i.p.
GS [3] = target: GS (Rattus norvegicus, UniProt P09606); assay type: in vivo, Wistar rats; set-up: Wistar rat brain homogenates were incubated with naftazone; from tissue; host or cells: Wistar rat brain homogenate or membranes; in A19 also liver and lungs

| SMILES | part of an oral dose unabsorbed, eliminated unchanged in the faeces [1] | GS activity in the hippocampus (GS [2]) | GS activity in the thalamus/hypothalamus (GS [2]) | GS activity in the cortex (GS [2]; GF 0.1, 3, 15 mg/kg, tianeptine 0.5, 15, 45 mg/kg) | seizure occurrence after PTZ administration (Wistar rats) | GS activity in the cortex, hippocampus and thalamus/hypothalamus (GS [3]; one hour after PTZ administration) | dose relation of the effects on GS activity (GS [3]; rat, in vivo) |
| --- | --- | --- | --- | --- | --- | --- | --- |
| CP(=O)(O)CCC(N)C(=O)O (racemic) [GF, ammonium 4-[hydroxy (methyl)phosphinoyl]-DL-homoalaninate] | 80-90% |  |  |  |  |  |  |
| CN1c2ccccc2C(NCCCCCCC(=O)O)c2ccc(Cl)cc2S1(=O)=O (stereo not shown) [tianeptine, 7-[(3-chloro-6,11-dihydro-6-methyl-dibenzo[c,f][1,2]thiazepin-11-yl)amino] heptanoic acid S,S-dioxide] |  | dose-dependently increased GS activity | decreased GS activity | no significant effect | decreased seizure occurrence | increased GS activity | not proportional to the dose |
